What was measured:
[1] = biological target: ligand binding domain of human FXR (Homo sapiens (Human), UniProt Q96RI1); test: FXR ligand binding assay (LanthaScreen TR-FRET, SRC2-2 peptide recruitment)
[2] = biological target: human Farnesoid X receptor ligand-binding domain/Gal4 DNA binding domain chimera (Homo sapiens (Human), UniProt Q96RI1); test: Cell-based assay of FXR activation (FXR-UAS-bla HEK 293T beta-lactamase reporter); conditions: cellular FXR beta-lactamase reporter assay
[3] = extent of activation relative to GW4064

Sequences of proteins named here, by UniProt entry; tags and fusion partners are left off. A change or cut given only in a name is not applied to a line headed by its entry. Residues count along the entry.
UniProt Q96RI1, 262-486 limits assumed: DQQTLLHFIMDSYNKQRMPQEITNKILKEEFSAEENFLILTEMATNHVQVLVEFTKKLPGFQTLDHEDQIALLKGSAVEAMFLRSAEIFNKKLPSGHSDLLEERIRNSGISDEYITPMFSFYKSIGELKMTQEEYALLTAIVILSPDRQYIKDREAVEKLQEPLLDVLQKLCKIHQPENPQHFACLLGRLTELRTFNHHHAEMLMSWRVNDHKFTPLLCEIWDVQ
UniProt P04386, 1-147 partner limits assumed: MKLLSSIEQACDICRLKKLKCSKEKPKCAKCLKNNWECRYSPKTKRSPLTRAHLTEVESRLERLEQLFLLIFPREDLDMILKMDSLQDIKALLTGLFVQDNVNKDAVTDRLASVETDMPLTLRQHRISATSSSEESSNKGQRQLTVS

**Q.** For `CCCCS(=O)(=O)NC(=O)c1ccc(N2C[C@@H]3C[C@H]2C[C@H]3OCc2c(-c3ccccc3C(F)(F)F)noc2C2CC2)c(F)c1`, which pEC50 ([1]; -log EC50, concentration required to produce 50% activation) is on record?
**A.** 8.4

**Q.** What about the “% Efficacy” value [1, 3] of the same compound?
**A.** 208%

**Q.** What about the pEC50 ([2]; FXR-UAS-bla HEK 293T cells, 16 h, pEC50 = -log EC50) of the same compound?
**A.** 9.8

**Q.** What about the “% Efficacy” value [2, 3] of the same compound?
**A.** 115%

From US10793568B2, “Hormone receptor modulators for treating metabolic conditions and disorders” (ARDELYX, INC., priority 2016, dated 2020)
